molecular target: Kappa-type opioid receptor (Cavia porcellus, UniProt P41144); assay: Displacement of [3H]U69593 from kappa opioid receptor in guinea pig brain homogenate; type: tissue-based

Sequences of proteins named here, by UniProt entry; tags and fusion partners are left off. A change or cut given only in a name is not applied to a line headed by its entry.
UniProt P41144: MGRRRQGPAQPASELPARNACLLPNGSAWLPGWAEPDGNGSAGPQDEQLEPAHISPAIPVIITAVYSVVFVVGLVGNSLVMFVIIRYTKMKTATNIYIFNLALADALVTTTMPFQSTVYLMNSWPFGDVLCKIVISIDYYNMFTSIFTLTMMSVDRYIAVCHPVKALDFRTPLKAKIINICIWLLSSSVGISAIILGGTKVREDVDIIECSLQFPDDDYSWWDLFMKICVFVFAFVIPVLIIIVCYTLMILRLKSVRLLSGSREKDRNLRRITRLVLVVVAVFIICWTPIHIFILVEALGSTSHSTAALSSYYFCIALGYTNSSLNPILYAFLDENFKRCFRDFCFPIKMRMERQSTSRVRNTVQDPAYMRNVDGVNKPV

SMILES | IC50
COc1ccc(C[C@@H]2CN3C(=NC[C@@H]3C)N2CC2CCC(C)CC2)cc1 (stereo partly specified) | 425 nM
COc1ccc(C[C@H]2CN3C(=NC[C@@H]3C3CCCCC3)N2CC2CCC(C)CC2)cc1 (stereo partly specified) | 336 nM
COc1ccc(C[C@H]2CN3C(=NC[C@@H]3C)N2CCC2CC3CCC2C3)cc1 (stereo partly specified) | 185 nM
C[C@H]1CN=C2N(CCC3CC4CCC3C4)[C@@H](C3CCCCC3)CN21 (stereo partly specified) | 4420 nM
CC(C)C[C@@H]1CN2C(=NC[C@@H]2C)N1CC1CCC(C)CC1 (stereo partly specified) | 6480 nM
COc1ccc(C[C@@H]2CN3C(=NC[C@H]3C3CCCCC3)N2CC2CCC(C)CC2)cc1 (stereo partly specified) | 362 nM
CC(C)C[C@@H]1CN2C(=NC[C@H]2C2CCCCC2)N1CCC1CC2CCC1C2 (stereo partly specified) | 359 nM
COc1ccc(C[C@@H]2CN3C(=NC[C@H]3C3CCCCC3)N2C(C)C23CC4CC(CC(C4)C2)C3)cc1 (stereo partly specified) | 341 nM
COc1ccc(C[C@@H]2CN3C(=NC[C@@H]3C)N2C(C)C23CC4CC(CC(C4)C2)C3)cc1 (stereo partly specified) | 238 nM
COc1ccc(C[C@H]2CN3C(=NC[C@@H]3C)N2CC2CCC(C)CC2)cc1 (stereo partly specified) | 1570 nM
COc1ccc(C[C@@H]2CN3C(=NC[C@@H]3C)N2CCC2CC3CCC2C3)cc1 (stereo partly specified) | 85 nM
CC(C)C[C@@H]1CN2C(=NC[C@@H]2C2CCCCC2)N1CCC1CC2CCC1C2 (stereo partly specified) | 827 nM
COc1ccc(C[C@H]2CN3C(=NC[C@H]3C3CCCCC3)N2CC2CCC(C)CC2)cc1 (stereo partly specified) | 804 nM
COc1ccc(C[C@@H]2CN3C(=NC[C@@H]3C3CCCCC3)N2CC2CCC(C)CC2)cc1 (stereo partly specified) | 369 nM
CC1CCC(CN2C3=NC[C@@H](C4CCCCC4)N3C[C@@H]2C2CCCCC2)CC1 (stereo in doubt; 11) | 365 nM
CC1CCC(CN2C3=NC[C@@H](C4CCCCC4)N3C[C@@H]2C2CCCCC2)CC1 (stereo in doubt; 24) | 1140 nM
